Among the data in PMC12102759 are screen value values, retold here.

B1: AZIN2 peptide 3-18 (Antizyme inhibitor 2), 16-mer library wild type / USP7 MATH (USP7 MATH domain, residues 53-206) (parent)
chain 1: GYLSESDFVMVEEGFS
chain 2: NTAEEDMEDDTSWRSEATFQFTVERFSRLSESVLSPPCFVRNLPWKIMVMPRFYPDRPHQKSVGFFLQCNAESDSTSWSCHAQAVLKIINYRDDEKSFSRRISHLFFHKENDWGFSNFMAWSEVTDPEKGFIDDDKVTFEVFVQADAPHGVAWD
B2: MBOAT1 peptide 15-30 (Lysophospholipid acyltransferase 1), 16-mer library wild type / USP7 MATH (USP7 MATH domain, residues 53-206) (parent)
chain 1: TGSTYLHPLSELLGIP
chain 2: B1 chain 2

Variants of B1 are the subject of one assay. The assay is described as follows: proteomic peptide phage display deep mutational scan (ProP-PD DMS): M13 P8 16-mer library selected against immobilised GST-tagged bait for four days (rounds), NGS of the eluted pools per day and pseudo-replica. Particulars: with USP7 MATH (USP7 MATH domain, residues 53-206); bait immobilised on MaxiSorp plates (10 µg), library pre-cleared on GST, 2 h binding at 4 °C, five washes; one round per day, days 1-4; value from days 2 and 3; keep out of graded; scale: average fractional NGS count over selection days 2 and 3.
Regarding chain 1 D7I, the screen value worked out at 0.
On to chain 1 V11H, for which the screen value worked out at 0.
Still for that read-out and setting: under chain 1 V11L stands 0; under chain 1 V11F, 0; under chain 1 V11W, 0.
Same read-out and setting: under chain 1 F15G stands 0.
Still for that read-out and setting: under chain 1 G14P stands 0; under chain 1 G14V, 0; under chain 1 G14S, 0.
For the variant chain 1 G14Y, the screen value worked out at 0.
The same measure, in the same setting: to chain 1 Y2E belongs 0; to chain 1 E5N, 0; to chain 1 E5H, 0.
Still for that read-out and setting: to chain 1 E5W belongs 1.31e-05; to chain 1 E5S, 0.
The same measure, in the same setting: under chain 1 E12I stands 0; under chain 1 E12L, 0; under chain 1 S4Q, 0.
In the case of chain 1 S4G, the screen value came out at 0.
Take chain 1 S4L: the screen value came to 0.
On the same count and under the same terms, to chain 1 S4H belongs 0; to chain 1 G1M, 0; to chain 1 L3I, 0.
On the same count and under the same terms, under chain 1 L3Q stands 0.
For the variant chain 1 E13V, the screen value worked out at 0.
Same read-out and setting: under chain 1 E13K stands 0; under chain 1 E13Y, 0.
On the same count and under the same terms, to chain 1 S6H belongs 0; to chain 1 F8A, 0.
For chain 1 F8G, the screen value is 0.
Same read-out and setting: under chain 1 F8D stands 0.
Same read-out and setting: to chain 1 V9T belongs 0.
The same measure, in the same setting: under chain 1 V9L stands 0; under chain 1 V9D, 0.

In a further assay the parent is B2. The assay is described as above. Particulars: with USP7 MATH (USP7 MATH domain, residues 53-206); bait immobilised on MaxiSorp plates (10 µg), library pre-cleared on GST, 2 h binding at 4 °C, five washes; one round per day, days 1-4; value from days 2 and 3; keep out of graded; scale: average fractional NGS count over selection days 2 and 3.
Take chain 1 S10Q: the screen value worked out at 0.
Consider chain 1 S10P, for which the screen value turned out to be 0.
On the same count and under the same terms, to chain 1 S10E belongs 0.
The same measure, in the same setting: under chain 1 S10K stands 0; under chain 1 S10V, 0; under chain 1 E11D, 0.
With chain 1 E11A, the screen value amounted to 0.
Same read-out and setting: under chain 1 E11Q stands 0; under chain 1 E11L, 0; under chain 1 E11F, 0.
Still for that read-out and setting: to chain 1 E11Y belongs 0; to chain 1 E11M, 0.
Still for that read-out and setting: to chain 1 E11K belongs 0; to chain 1 E11I, 0.
Take chain 1 E11P: the screen value amounted to 0.
Still for that read-out and setting: under chain 1 G14Y stands 0.
Still for that read-out and setting: under chain 1 G14K stands 0; under chain 1 G14W, 0.
For the variant chain 1 G14M, the screen value worked out at 0.
Turning to chain 1 G14R, the screen value came out at 0.
The same measure, in the same setting: under chain 1 G14S stands 1.16e-05; under chain 1 G14V, 0.
Same read-out and setting: to chain 1 G14N belongs 0; to chain 1 G14L, 0; to chain 1 G14I, 0.
Consider chain 1 G14H, for which the screen value was determined as 0.
Same read-out and setting: to chain 1 G14T belongs 0; to chain 1 G14A, 0.
The same measure, in the same setting: to chain 1 G14F belongs 0; to chain 1 H7Q, 0.
The same measure, in the same setting: to chain 1 H7M belongs 0.
Turning to chain 1 H7V, the screen value stood at 0.
In the case of chain 1 P8E, the screen value was found to be 0.
Same read-out and setting: to chain 1 P8Q belongs 0.
Still for that read-out and setting: to chain 1 P8T belongs 0; to chain 1 P8N, 0; to chain 1 P8L, 0.
The same measure, in the same setting: under chain 1 S3R stands 0.
chain 1 S3D: the screen value amounted to 6.29e-05.
Still for that read-out and setting: under chain 1 S3V stands 1.23e-05; under chain 1 S3Y, 0; under chain 1 S3H, 3.03e-05.
chain 1 S3A: the screen value turned out to be 8.6e-06.
The same measure, in the same setting: to chain 1 S3Q belongs 1.31e-05; to chain 1 S3L, 6.88e-05.
Same read-out and setting: to chain 1 S3E belongs 3.23e-05.
The same measure, in the same setting: under chain 1 S3W stands 0.000137; under chain 1 S3F, 5.22e-05; under chain 1 S3M, 4.73e-05.
chain 1 G2M: the screen value turned out to be 0.000101.
Same read-out and setting: to chain 1 G2F belongs 0.000133; to chain 1 G2P, 0; to chain 1 G2S, 0.
On the same count and under the same terms, under chain 1 G2I stands 3.52e-05; under chain 1 G2A, 2.68e-05; under chain 1 G2D, 0.000147.
Same read-out and setting: under chain 1 G2E stands 0.000755; under chain 1 G2L, 0.000117; under chain 1 G2V, 5.42e-05.
Turning to chain 1 G2H, the screen value came out at 0.
In the case of chain 1 G2W, the screen value came out at 0.000165.
On the same count and under the same terms, to chain 1 G2T belongs 0; to chain 1 G2Y, 0.000108; to chain 1 L12F, 0.000745.
The same measure, in the same setting: to chain 1 L12Y belongs 0.000166; to chain 1 L12M, 0.
For chain 1 L12D, the screen value is 0.
Same read-out and setting: to chain 1 P16D belongs 0; to chain 1 P16H, 0.
On the same count and under the same terms, under chain 1 P16T stands 4.7e-05; under chain 1 P16N, 1.53e-05; under chain 1 P16Y, 1.74e-05.
The same measure, in the same setting: under chain 1 P16G stands 1.34e-05.
As for chain 1 P16W, the screen value stood at 5.35e-05.
The same measure, in the same setting: to chain 1 P16M belongs 0.00014; to chain 1 P16S, 0.000173; to chain 1 P16L, 0.
Same read-out and setting: under chain 1 P16A stands 3.58e-05; under chain 1 P16E, 0; under chain 1 P16V, 0.000913.
The same measure, in the same setting: to chain 1 P16Q belongs 0; to chain 1 P16I, 9.4e-06; to chain 1 T4S, 8.6e-06.
chain 1 T4Y: the screen value was 0.
The same measure, in the same setting: under chain 1 T4N stands 0.
On the same count and under the same terms, to chain 1 T4F belongs 9.4e-06; to chain 1 T4R, 0.
Consider chain 1 T4E, for which the screen value turned out to be 0.000154.
